{
  "source": "patent US20130347134A1",
  "about": "“TRANSGENIC VON WILLEBRAND FACTOR ANIMALS AND USES THEREOF” (priority 2012, published 2013)",
  "tested_on": "human platelets",
  "assay": "Tail bleeding assay, human platelet-induced hemostasis in homozygous VWF^1326R>H mice",
  "type": "in vivo, mouse",
  "details": "drug given to homozygous VWF^1326R>H mice receiving human platelets",
  "description": "Tail bleeding assay. […] For studies involving PLAVIX, animals received a 50 mg/kg oral dose of the drug the day before and 2 hours prior to the administration of human platelets.\nThis assay provides an indirect measure of the ability of platelets and VWF to support hemostasis by interacting with the injured vessel wall. It also indirectly determines the function of multiple receptors and ligands on platelets that are required to form a hemostatic plug. […] It is performed by immersing the severed tip (10 mm) of the animal's tail in isotonic saline at 37° C. and monitoring the length of time required for bleeding to cease. Homozygous mutant mice will be infused with an equal volume of either saline or purified human platelets. Platelet specific antibodies or drugs will be administered as described above and their ability to prolong bleeding time evaluated.",
  "data": [
    {"compound": "COC(=O)[C@H](c1ccccc1Cl)N1CCc2sccc2C1", "note": "[clopidogrel]", "values": [
      {"measurement": "human platelet-induced hemostatic clot formation", "value": "completely disrupted"},
      {"measurement": "human platelet-induced hemostatic clot formation", "setting": "listed as Clopidogrel", "value": "unable to produce a hemostatic clot"}
    ]}
  ]
}
